# Assay results as given in US20170058314A1, “NOVEL METHODOLOGY FOR IDENTIFYING ANTI-PERSISTER ACTIVITY AND ANTIMICROBIAL SUSCEPTIBILITY FOR BORRELIA BURGDORFERI AND OTHER BACTERIA” (priority 2014, published 2017).
# Legend:
# [1] = tested on: stationary phase B. burgdorferi persisters (strain B31); assay: SYBR Green I/PI viability assay (plate reader), FDA-approved drug library screen; settings: 50 μM, 7-day old stationary phase cells treated for 7 days
# [2] = tested on: stationary phase B. burgdorferi persisters (strain B31); assay: epifluorescence microscope counting after SYBR Green I/PI staining, FDA drug screen; settings: 50 μM, 7-day old stationary phase cells treated for 7 days
substance,measurement,setting,value
Collistin,"Residual viable cells (regression equation, SYBR Green I/PI assay)",[1],54%
same,Residual viable cells (epifluorescence microscope counting),[2],50%
